Values quoted from earlier work, collected in US5278308A, “Iodine derivatives of tetrabenazine” (The Trustees of The University of Pennsylvania, priority 1992, dated 1994).

Test system: monoamine uptake-storage mechanism of amine granules in the synapse
Conditions: in vivo; cited from earlier work

SMILES: COC(=O)[C@H]1[C@H]2C[C@@H]3c4[nH]c5cc(OC)ccc5c4CCN3C[C@H]2C[C@@H](OC(=O)c2cc(OC)c(OC)c(OC)c2)[C@@H]1OC [Reserpine]
- Duration of depletion of catecholamines and serotonin in the brain (in words): long-lasting
